Assay results as given in patent publication US5886007A (priority 1997, dated 1999).

Sequences of proteins named here, by UniProt entry; tags and fusion partners are left off. Residues count along the entry.
UniProt Q9JKC1, 24-597 limits assumed: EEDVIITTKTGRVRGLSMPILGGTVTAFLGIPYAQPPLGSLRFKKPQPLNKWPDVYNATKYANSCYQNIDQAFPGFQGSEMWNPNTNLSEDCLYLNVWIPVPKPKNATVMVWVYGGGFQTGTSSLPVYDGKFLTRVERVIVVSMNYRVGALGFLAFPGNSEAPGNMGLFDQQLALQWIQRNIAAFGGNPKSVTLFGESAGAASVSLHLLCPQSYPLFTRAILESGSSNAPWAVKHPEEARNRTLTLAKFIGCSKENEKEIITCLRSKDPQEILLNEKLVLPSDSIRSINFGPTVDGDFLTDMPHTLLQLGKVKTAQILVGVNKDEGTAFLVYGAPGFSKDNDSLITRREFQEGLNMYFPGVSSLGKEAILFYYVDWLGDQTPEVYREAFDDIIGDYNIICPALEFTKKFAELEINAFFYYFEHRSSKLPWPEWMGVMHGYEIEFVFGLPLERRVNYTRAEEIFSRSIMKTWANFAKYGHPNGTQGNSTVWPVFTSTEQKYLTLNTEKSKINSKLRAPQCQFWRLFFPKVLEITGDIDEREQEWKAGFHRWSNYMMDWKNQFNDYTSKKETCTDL

Target: rat serum BChE (Rattus norvegicus, UniProt Q9JKC1)
Assay: Inhibition of rat serum BChE (spectrophotometric, butyrylthiocholine substrate)
Type: biochemical
Conditions: read-out: IC50 rat serum BChE, 10^-5 M BW284C51, compounds in salt form

c1ccc2c(NCCCCCCCCCNc3c4c(nc5ccccc35)CCCC4)c3c(nc2c1)CCCC3
IC50: 202 nM
